In patent publication US6713265B1 (Synaptic Pharmaceutical Corporation, priority 1999, dated 2004):

Target: T1, human Y5 receptor (Homo sapiens, UniProt Q15761)
T1 sequence (Q15761 1-445): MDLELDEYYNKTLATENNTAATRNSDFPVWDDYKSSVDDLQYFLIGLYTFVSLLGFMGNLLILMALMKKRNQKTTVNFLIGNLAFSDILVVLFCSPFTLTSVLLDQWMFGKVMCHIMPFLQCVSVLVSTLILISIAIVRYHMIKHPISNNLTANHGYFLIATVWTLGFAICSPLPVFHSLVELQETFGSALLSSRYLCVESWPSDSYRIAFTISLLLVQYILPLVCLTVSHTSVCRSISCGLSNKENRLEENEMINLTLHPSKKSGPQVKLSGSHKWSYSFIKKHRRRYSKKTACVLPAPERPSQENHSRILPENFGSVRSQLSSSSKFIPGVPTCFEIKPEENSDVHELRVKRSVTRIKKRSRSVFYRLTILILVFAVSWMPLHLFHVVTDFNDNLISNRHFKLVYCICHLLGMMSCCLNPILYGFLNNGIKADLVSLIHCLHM
Assay: Radioligand binding to membranes of cells expressing cloned human Y5 receptor
Parameters: Ki Values, Human Y5; apparent Kd; pKd; The isolated clone (CG-19) turned out to contain a full length cDNA; The longest open reading frame encodes a 455 amino acid protein
Conditions: saturation binding; for Kd: read-out: apparent Kd

^125I-PYY
pKd (COS-7 transient human Y5, n=4): 9.76±0.11 | Kd (COS-7 transient human Y5): 100 pM and 180 pM | pKd (LM(tk-) clone #7): 9.32±0.07 | Kd (LM(tk-) clone #7 stable human Y5): 470 pM | Kd (NIH-3T3 clone #8 stable human Y5): 300 pM

Values joined by “and” are separate entries in the source; they are usually repeats but may differ in a detail not shown here. Equal entries are not always repeated. Where two headings read alike, the source gives them in different places.
